## AlphaSeq binding of Ab-95 light chain variants to a spike HR2 peptide

Binding partner: SARS-CoV-2 spike HR2 peptide, sequence PDVDLGDISGINAS.

Ab-95 is the parent antibody, in scFv form: VH, then the linker GGGGSGGGGSGGGGS, then VL. The heavy chain is unchanged in all variants.
VH: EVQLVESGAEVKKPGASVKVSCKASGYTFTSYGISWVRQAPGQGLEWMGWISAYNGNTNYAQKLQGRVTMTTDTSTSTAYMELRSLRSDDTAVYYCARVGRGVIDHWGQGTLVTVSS
VL: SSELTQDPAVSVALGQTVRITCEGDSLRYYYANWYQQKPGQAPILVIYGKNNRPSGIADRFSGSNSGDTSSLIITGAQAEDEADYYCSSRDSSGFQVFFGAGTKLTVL

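Phage display of a naive human antibody library on the peptide gave the parent. In library AAYL52, one, two or three CDR residues were substituted; doubles and triples were drawn at random. The scFvs were displayed on barcoded MATa yeast, the peptide on MATalpha yeast. Mating (16 h, 30 °C) was followed by selection of diploids and sequencing of their barcodes. The ratio of observed to expected reads was calibrated, replicate by replicate, on BCL2-family standards whose Kd was known from biolayer interferometry. There are three technical replicates.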

Substitutions are numbered in sequence along the VL above, starting at 1 (not Kabat). Affinities are written as log10 Kd with Kd in nM; a lower number is a better binder. A mean of the replicates is given; it leaves out those without a signal. A pair that was not seen in that replicate is written "n.d."; this usually means weak binding, but a binder can also be missed. Empty control strains, which show no peptide, gave a signal in 28% of pairings with library AAYL52; the median was 3.91 and 95% of these signals were weaker than 2.90. No background was subtracted. The control count says in how many pairings with the empty strains this scFv gave a signal, with their mean in brackets. For reference, the parent read 2.31 as the reference entry and 2.25 as a member of this library.

changes | log10 Kd (nM) by replicate | log10 Kd (nM), mean | signal with controls
S26R Y30C G49L | n.d. n.d. n.d. | n.d. | 1 of 9 (3.06)
R28A N52T Q96A | 2.73 2.93 2.49 | 2.71 | 0 of 9
E23R N33M | 3.42 3.31 2.67 | 3.14 | 4 of 9 (4.23)
G24I S89K Q96T | 3.83 n.d. n.d. | 3.83 | 2 of 9 (3.78)
R90E Q96L V97W | 3.88 3.53 4.03 | 3.81 | 1 of 9 (3.41)
N52G R53H S93A | 2.99 2.85 2.28 | 2.71 | 6 of 9 (4.31)
E23K P54S F95G | 2.63 3.11 2.81 | 2.85 | 2 of 9 (4.56)
Y31K N51H F95M | 3.45 3.71 4.78 | 3.98 | 7 of 9 (3.63)
R28F Y30N S93W | 1.58 1.19 1.24 | 1.34 | 1 of 9 (3.35)
Y29H P54E F98W | 3.19 3.73 2.64 | 3.18 | 1 of 9 (5.31)
N52E S88P Q96D | 2.24 2.31 2.14 | 2.23 | 3 of 9 (3.45)
G24P N33C S93A | 4.12 3.47 n.d. | 3.80 | 2 of 9 (3.88)
S26R A32P S92H | n.d. 3.45 n.d. | 3.45 | 4 of 9 (4.19)
L27R Y30I S55M | 3.27 5.54 3.22 | 4.01 | 7 of 9 (3.70)
S26C N51P D91K | n.d. 3.43 n.d. | 3.43 | 3 of 9 (3.79)
S26P N52W S92C | 3.54 3.77 3.17 | 3.49 | 3 of 9 (3.77)
E23H S55I S89T | 2.80 2.73 2.69 | 2.74 | 2 of 9 (4.00)
G49L P54T R90L | n.d. n.d. n.d. | n.d. | 1 of 9 (4.68)
D25Y P54V | 3.13 2.79 n.d. | 2.96 | 2 of 9 (4.06)
L27R F98L | 3.39 3.29 3.51 | 3.40 | 5 of 9 (4.37)
Y31A N33W K50D | n.d. n.d. n.d. | n.d. | 5 of 9 (4.36)
S88T S93K V97S | 2.69 2.82 2.20 | 2.57 | 1 of 9 (4.14)
N52Y S89V G94L | 4.21 3.41 n.d. | 3.81 | 3 of 9 (3.63)
P54M S93Y G94I | n.d. 5.56 3.86 | 4.71 | 2 of 9 (4.26)
E23C G24H D25K | 3.43 2.54 n.d. | 2.98 | 3 of 9 (3.13)
Y31A V97H F98H | 2.92 2.92 2.76 | 2.87 | 3 of 9 (3.76)
E23Y Q96T V97F | 3.52 3.01 2.88 | 3.14 | 1 of 9 (4.07)
G24V S26V Q96E | n.d. 3.58 n.d. | 3.58 | 0 of 9
Y31N F95E | 1.74 1.65 2.49 | 1.96 | 0 of 9
R28H R53A P54T | 4.60 n.d. n.d. | 4.60 | 1 of 9 (3.97)
E23N S89Y F98D | n.d. n.d. n.d. | n.d. | 0 of 9
G24F L27W N52Q | 4.60 3.98 n.d. | 4.29 | 3 of 9 (3.86)
E23R L27I F98Q | 3.84 3.47 2.32 | 3.21 | 2 of 9 (3.11)
Y29N S88E G94S | 2.53 2.39 2.00 | 2.31 | 3 of 9 (4.41)
D25C Y29F F95H | n.d. n.d. n.d. | n.d. | 1 of 9 (4.07)
Y31H R53Q R90I | 2.79 3.69 n.d. | 3.24 | 1 of 9 (3.94)
Y29D Q96F F98S | 3.07 3.14 1.92 | 2.71 | 2 of 9 (4.20)
G24F S26V N51K | 4.10 n.d. 3.86 | 3.98 | 4 of 9 (4.28)
N33A N51L F98E | 4.64 n.d. n.d. | 4.64 | 2 of 9 (3.34)
D25P R28N S88L | 3.17 2.42 2.47 | 2.69 | 5 of 9 (3.75)
R90N G94V F95C | 3.53 3.22 4.11 | 3.62 | 4 of 9 (4.28)
Y29F R90D | 3.32 n.d. n.d. | 3.32 | 0 of 9
D91G | 2.34 2.04 1.78 | 2.05 | 4 of 9 (3.70)
R90N F98P | n.d. n.d. 3.25 | 3.25 | 1 of 9 (3.11)
D25T Y31D G49R | 2.85 3.01 2.39 | 2.75 | 3 of 9 (3.29)

Source: Engelhart et al. 2022 (doi:10.1038/s41597-022-01779-4), MIT Lincoln Laboratory and A-Alpha Bio; data file from the FLAb repository.